Reference: patent US20250134869A1, “Pyrrolo[2,3-d]pyrimidinyl, Pyrrolo[2,3-b]pyrazinyl and Pyrrolo[2,3-d]pyridinyl Acryla-mides” (Pfizer Inc, priority 2021, published 2025)

Amino acid sequences for entries named in this document (tags omitted).
UniProt P52333, whole entry, species assumed: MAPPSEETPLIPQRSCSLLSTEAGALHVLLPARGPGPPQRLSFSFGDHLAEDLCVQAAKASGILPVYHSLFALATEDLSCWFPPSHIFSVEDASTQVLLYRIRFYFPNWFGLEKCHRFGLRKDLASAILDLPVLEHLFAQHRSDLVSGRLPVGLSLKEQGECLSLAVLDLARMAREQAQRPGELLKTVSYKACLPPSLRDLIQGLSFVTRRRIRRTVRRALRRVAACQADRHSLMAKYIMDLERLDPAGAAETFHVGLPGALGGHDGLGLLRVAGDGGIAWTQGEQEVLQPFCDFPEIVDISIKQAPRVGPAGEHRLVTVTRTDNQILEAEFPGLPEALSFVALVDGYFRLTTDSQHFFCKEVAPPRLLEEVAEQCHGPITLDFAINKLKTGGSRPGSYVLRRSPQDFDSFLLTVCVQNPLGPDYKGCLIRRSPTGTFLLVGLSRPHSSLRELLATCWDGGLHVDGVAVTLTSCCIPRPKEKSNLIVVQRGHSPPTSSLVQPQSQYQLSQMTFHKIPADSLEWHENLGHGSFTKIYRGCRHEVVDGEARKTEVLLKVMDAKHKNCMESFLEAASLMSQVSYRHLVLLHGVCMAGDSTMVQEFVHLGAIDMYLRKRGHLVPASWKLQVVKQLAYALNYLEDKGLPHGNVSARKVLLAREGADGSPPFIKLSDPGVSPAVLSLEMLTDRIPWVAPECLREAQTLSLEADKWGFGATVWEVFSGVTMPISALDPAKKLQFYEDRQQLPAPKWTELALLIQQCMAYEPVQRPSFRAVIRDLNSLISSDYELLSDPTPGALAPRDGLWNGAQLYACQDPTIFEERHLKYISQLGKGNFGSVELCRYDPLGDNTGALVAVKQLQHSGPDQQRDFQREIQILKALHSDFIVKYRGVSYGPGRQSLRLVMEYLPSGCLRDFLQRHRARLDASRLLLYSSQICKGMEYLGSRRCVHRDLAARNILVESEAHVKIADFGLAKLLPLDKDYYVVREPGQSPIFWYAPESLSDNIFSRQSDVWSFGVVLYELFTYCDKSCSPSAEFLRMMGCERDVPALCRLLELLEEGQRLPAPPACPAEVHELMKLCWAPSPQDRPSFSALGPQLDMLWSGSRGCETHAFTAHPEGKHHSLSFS

Target: JAK3 enzyme (Homo sapiens (Human), UniProt P52333)
Test: JAK Caliper Enzyme Assay at 4 μM or 1 mM ATP
Format: biochemical
Protocol: JAK Caliper Enzyme Assay at […] or 1 mM ATP
Test article was solubilized in dimethyl sulfoxide (DMSO) to a stock concentration of 30 mM. An 11-point half log dilution series was created in DMSO with a top concentration of 600 μM. […] The compound plates were diluted 1 to 60 resulting in a top final assay compound concentration of 10 μM and a 2% DMSO concentration.
Test article and assay controls were added to a 384-well plate. Reaction mixtures contained 20 mM HEPES, pH 7.4, 10 mM magnesium chloride, 0.01% bovine serum albumin (BSA), 0.0005% Tween […] or 1 mM ATP and […] peptide substrate. […] The assays were initiated by the addition 1 nM JAK3 enzyme and were incubated at room temperature 75 minutes for JAK3. Enzyme concentrations and incubation times were optimized for each new enzyme preps and were modified slightly over time to ensure 20%-30% phosphorylation. The assays were stopped with a final concentration of 10 mM EDTA, 0.1% Coating Reagent and 100 mM HEPES, pH=7.4. The assay plates were placed on a Caliper Life Science Lab Chip 3000 (LC3000) instrument, and each well was sampled using appropriate separation conditions to measure the unphosphorylated and phosphorylated peptide.

[1] = read-out: JAK3 (4 μM ATP) IC50, 4 μM ATP
[2] = read-out: JAK3 (1 mM ATP) IC50, 1 mM ATP

Compound	IC50 [1]	IC50 [2]
C=CC(=O)N1CCC(Nc2cnc3[nH]cc(C(=O)NC(C)(C)C)c3n2)C[C@@H]1C (mixture of isomers) [Example 340]	21.1 nM	
C=CC(=O)N1CC[C@H](C)[C@@H](Nc2ncnc3[nH]ccc23)C1 (racemic) [Example 50, 1-[(3R,4S)-4-methyl-3-(7H-pyrrolo[2,3-d]pyrimidin-4-ylamino)piperidin-1-yl]prop-2-en-1-one]	2 nM	116 nM
C=CC(=O)N1C[C@H](Nc2ncnc3[nH]ccc23)CC[C@@H]1CO (single isomer, unassigned) [Example 7]	0.3 nM	45.3 nM
C=CC(=O)N1CC[C@@H]2CCN(c3ncnc4[nH]ccc34)[C@@H]2C1 (single isomer, unassigned) [Example 8]	< 0.4 nM	47.7 nM
C=CC(=O)N1C[C@@H](C)C[C@@H](Nc2ncnc3[nH]ccc23)C1 (single isomer, unassigned) [Example 14]	0.5 nM	60.5 nM
C=CC(=O)N1C[C@H](Nc2ncnc3[nH]ccc23)CCC1(C)C (single isomer, unassigned) [Example 61]	7.5 nM	609 nM
C=CC(=O)N1CC[C@H](C)[C@@H](Nc2ncnc3[nH]ccc23)C1 [Example 11, 1-((3R,4S)-3-((7H-pyrrolo[2,3-d]pyrimidin-4-yl)amino)-4-methylpiperidin-1-yl)prop-2-en-1-one]	0.4 nM	55.9 nM
C=CC(=O)N1CCC[C@@H](Nc2ncnc3[nH]cc(-c4ccc(OCC)nc4)c23)C1 [Example 33, 1-[(3R)-3-{[5-(6-ethoxypyridin-3-yl)-7H-pyrrolo[2,3-d]pyrimidin-4-yl]amino}piperidin-1-yl]prop-2-en-1-one]	49.5 nM	
C=CC(=O)N1CC[C@@H]2CCN(c3nc(N)nc4[nH]ccc34)[C@@H]2C1 [Example 73, 1-[(3aS,7aS)-1-(2-Amino-7H-pyrrolo[2,3-d]pyrimidin-4-yl)octahydro-6H-pyrrolo[2,3-c]pyridin-6-yl]prop-2-en-1-one]	48.4 nM	
C=CC(=O)N1C[C@@H](C)C[C@H](Nc2ncnc3[nH]ccc23)C1 [Example 75, 1-((3S,5S)-3-((7H-Pyrrolo[2,3-d]pyrimidin-4-yl)amino)-5-methylpiperidin-1-yl)prop-2-en-1-one]	716 nM	> 10000 nM
O=C(/C=C/C(F)F)N1CC[C@@H]2CCN(c3ncnc4[nH]ccc34)[C@@H]2C1 [Example 80, (2E)-4,4-difluoro-1-[(3aS,7aS)-1-(7H-pyrrolo[2,3-d]pyrimidin-4-yl)octahydro-6H-pyrrolo[2,3-c]pyrdin-6-yl]but-2-en-1-one]	22.7 nM	
O=C(/C=C/C(F)(F)F)N1CC[C@@H]2CCN(c3ncnc4[nH]ccc34)[C@@H]2C1 [Example 81, (2E)-4,4,4-trifluoro-1-[(3aS,7aS)-1-(7H-pyrrolo[2,3-d]pyrimidin-4-yl)octahydro-6H-pyrrolo[2,3-c]pyridin-6-yl]but-2-en-1-one]	35.3 nM	
C=C(CN(C)C)C(=O)N1CCC[C@@H](Nc2ncnc3[nH]ccc23)C1 [Example 92, 2-[(dimethylamino)methyl]-1-[(3R)-3-(7H-pyrrolo[2,3-d]pyrimidin-4-ylamino)piperidin-1-yl]prop-2-en-1-one]		> 10000 nM
CC(C)=C(C#N)C(=O)N1CCCC(Nc2ncnc3[nH]ccc23)C1 (centres unmarked) [Example 96, 3-methyl-2-{[3-(7H-pyrrolo[2,3-d]pyrimidin-4-ylamino)piperidin-1-yl]carbonyl}but-2-enenitrile]		> 10000 nM
C=CC(=O)N1C[C@H](C)C[C@H](Nc2ncnc3[nH]ccc23)C1 [Example 128, 1-[(3R,5S)-3-Methyl-5-(7H-pyrrolo[2,3-d]pyrimidin-4-ylamino)piperidin-1-yl]prop-2-en-1-one]	444 nM	> 10000 nM
C=CC(=O)N1C[C@H](Nc2ncnc3[nH]ccc23)CC[C@@H]1CO [Example 161, 1-[(2R,5R)-2-(Hydroxymethyl)-5-(7H-pyrrolo[2,3-d]pyrimidin-4-ylamino)piperidin-1-y]prop-2-en-1-one]	0.3 nM	45.3 nM
C=CC(=O)N1CCN(c2cnc3[nH]ccc3n2)CC1 [Example 172, 1-[4-(5H-pyrrolo[2,3-b]pyrazin-2-yl)piperazin-1-yl]prop-2-en-1-one]	25.5 nM	
C=CC(=O)N1CCC[C@H]1CNc1cnc2[nH]cc(C(=O)NC(C)C)c2n1 [Example 177, 2-({[(2S)-1-acryloylpyrrolidin-2-yl]methyl}amino)-N-(propan-2-yl)-5H-pyrrolo[2,3-b]pyrazine-7-carboxamide]	0.7 nM	44.4 nM
C=CC(=O)N[C@@H]1CCN(c2cnc3[nH]cc(C(=O)NC(C)C)c3n2)C1 [Example 181, 2-[(3R)-3-(acryloylamino)pyrrolidin-1-yl]-N-(propan-2-yl)-5H-pyrrolo[2,3-b]pyrazine-7-carboxamide]	10.3 nM	
C=CC(=O)N(C)[C@@H]1CCN(c2cnc3[nH]cc(C(=O)NC(C)C)c3n2)C1 [Example 190, 2-{(3R)-3-[acryloyl(methyl)amino]pyrrolidin-1-yl}-N-(propan-2-yl)-5H-pyrrolo[2,3-b]pyrazine-7-carboxamide]	13.9 nM	
C=CC(=O)NC1CCN(c2cnc3[nH]cc(C(=O)NC(C)C)c3n2)C1 (centres unmarked) [Example 195, 2-[3-(acryloylamino)pyrrolidin-1-yl]-N-(propan-2-yl)-5H-pyrrolo[2,3-b]pyrazine-7-carboxamide]	12.1 nM	
C=CC(=O)N1CCC(Oc2cnc3[nH]cc(-c4c(C)nn(C)c4C)c3n2)CC1 [Example 221, 1-(4-{[7-(1,3,5-trimethyl-1H-pyrazol-4-yl)-5H-pyrrolo[2,3-b]pyrazin-2-yl]oxy}piperidin-1-yl)prop-2-en-1-one]	15.5 nM	
C=CC(=O)N1CCC(Oc2cnc3[nH]cc(-c4cnc(N5CCOCC5)nc4)c3n2)CC1 [Example 223, 1-[4-({7-[2-(morpholin-4-yl)pyrimidin-5-yl]-5H-pyrrolo[2,3-b]pyrazin-2-yl}oxy)piperidin-1-yl]prop-2-en-1-one]	30 nM	
C=CC(=O)N1CC2(CCN(c3cnc4[nH]cc(C(=O)NC(C)C)c4n3)C2)C1 [Example 296, 2-(2-acryloyl-2,6-diazaspiro[3.4]oct-6-yl)-N-(propan-2-yl)-5H-pyrrolo[2,3-b]pyrazine-7-carboxamide]	56.6 nM	
C=CC(=O)N1C[C@H](C)N(c2cnc3[nH]cc(C(=O)NC(C)C)c3n2)C[C@H]1C [Example 298, 2-[(2S,5R)-4-acryloyl-2,5-dimethylpiperazin-1-yl]-N-(propan-2-yl)-5H-pyrrolo[2,3-b]pyrazine-7-carboxamide]	4.6 nM	728 nM
C=CC(=O)N1C[C@@H]2CC[C@H]1CN2c1cnc2[nH]cc(C(=O)NC(C)C)c2n1 [Example 304, 2-[(1S,4S)-5-acryloyl-2,5-diazabicyclo[2.2.2]oct-2-yl]-N-(propan-2-yl)-5H-pyrrolo[2,3-b]pyrazine-7-carboxamide]	7.1 nM	624 nM
C=CC(=O)N1CC2CCC1CN2c1cnc2[nH]cc(C(=O)NC(C)C)c2n1 (centres unmarked) [Example 308, 2-(5-acryloyl-2,5-diazabicyclo[2.2.2]oct-2-yl)-N-(propan-2-yl)-5H-pyrrolo[2,3-b]pyrazine-7-carboxamide]	5.2 nM	431 nM
C=CC(=O)N1C[C@@H](C)N(c2cnc3[nH]cc(C(=O)NC(C)C)c3n2)C[C@H]1C [Example 326, 2-[(2R,5R)-4-acryloyl-2,5-dimethylpiperazin-1-yl]-N-(propan-2-yl)-5H-pyrrolo[2,3-b]pyrazine-7-carboxamide]	4.9 nM	506 nM
C=CC(=O)N1C[C@@H](C)N(c2cnc3[nH]cc(C(=O)NC(C)C)c3n2)C[C@@H]1C [Example 327, 2-[(2R,5S)-4-acryloyl-2,5-dimethylpiperazin-1-yl]-N-(propan-2-yl)-5H-pyrrolo[2,3-b]pyrazine-7-carboxamide]	6 nM	569 nM

Read-outs that look alike come from different tables or passages of the source.
